Data taken from patent publication US20230233515A1, “PHOTODYNAMIC ANTI-GRAM-POSITIVE BACTERIAL ACTIVITY OF PHARMACEUTICAL-GRADE ROSE BENGAL” (priority 2021, published 2023).

Tested on: S.aureus 6538™
Experiment: Time-kill kinetic assay
Conditions: after 2 minutes at 1.6 and 5.0 µg/mL RB; fluorescent light

## O=C([O-])c1c(Cl)c(Cl)c(Cl)c(Cl)c1-c1c2cc(I)c(=O)c(I)c-2oc2c(I)c([O-])c(I)cc12.[Na+].[Na+] [RB, 4,5,6,7-tetrachloro-2′,4′,5′,7′-tetraiodo-fluorescein]
  CFU counted: No CFU were counted
